# Data published in PubChem BioAssay AID2177 (The Scripps Research Institute Molecular Screening Center, 2009).
# The chains behind the UniProt entries cited, without tags or fusion partners.
# UniProt O95372, whole entry: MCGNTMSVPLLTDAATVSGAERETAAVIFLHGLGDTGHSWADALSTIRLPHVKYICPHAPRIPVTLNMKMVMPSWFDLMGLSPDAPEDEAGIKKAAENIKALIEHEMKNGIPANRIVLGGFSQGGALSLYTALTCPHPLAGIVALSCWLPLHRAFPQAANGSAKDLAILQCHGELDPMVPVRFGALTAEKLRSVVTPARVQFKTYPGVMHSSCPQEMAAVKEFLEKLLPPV
# The list shows a part of the results, in another mix than the full data. Some salts and complexes are drawn in separate pieces, as the source files them; their charges need not balance. Activity calls are given as the source filed them.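 Rule for the calls: active = inhibition above the screen-wide mean plus 3 SD, limit set per campaign (cut at about 26% in these data); inactive = the rest.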
# Target: Acyl-protein thioesterase 2 (Homo sapiens) (UniProt O95372)
# Assay: inhibition of human lysophospholipase 2 – biochemical, fluorescence polarization, FP-Rh probe ABPP, counter-screen for PME1 inhibitor project, primary screen (AID 2177);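 note: 0% = LYPLA2 with DMSO and 100% = wells lacking LYPLA2 enzyme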
# Settings: recombinant LYPLA2, FP-Rh probe fluorescence polarization; at 5.9 µM; stronger effect = higher value
row,SMILES,inhibition
1,COc1ccc(OP(C)(=O)Nc2ccc(SC(F)(F)F)cc2)cc1 (stereo not drawn),inactive: -5.17%
2,CCOC(=O)c1ccc(NP(C)(=O)Oc2ccc(F)cc2)cc1 (stereo not drawn),inactive: 12.3%
3,CCN(CC)CCCOC(=O)C(O)(c1ccccc1)C1CCCCC1 (stereo not drawn),inactive: -3.57%
4,O=[N+]([O-])c1cc([N+](=O)[O-])c(OC2CCCCC2O)c([N+](=O)[O-])c1 (stereo not drawn),inactive: 2.8%
5,CCCCCOc1ccc(NP(C)(=O)Oc2ccc(Cl)cc2Cl)cc1 (stereo not drawn),inactive: 6.79%
6,CP(=O)(Nc1ccccc1)Oc1ccc(F)cc1 (stereo not drawn),inactive: 0.76%
7,CC(C)c1ccc(OP(C)(=O)Nc2ccc(SC(F)(F)F)cc2)cc1 (stereo not drawn),inactive: -1.81%
8,CP(=O)(Nc1ccccc1F)Oc1ccccc1 (stereo not drawn),inactive: 8.69%
9,O=C(OCCN1CCN(CCOCc2ccccc2)CC1)C(O)(c1ccccc1)c1ccccc1,inactive: 0.2%
10,O=C(OC1CN2CCC1CC2)c1ccc([N+](=O)[O-])cc1 (stereo not drawn),inactive: -2.36%
11,COc1ccc2c(c1O)-c1c(O)c(OC)cc3c1[C@H](C2)[N+](C)(C)CC3.O=[N+]([O-])c1cc([N+](=O)[O-])c([O-])c([N+](=O)[O-])c1[O-],inactive: 7.29%
12,CP(=O)(Nc1ccc(SC(F)(F)F)cc1)Oc1ccc(F)cc1 (stereo not drawn),inactive: -3.95%
13,CCOP(C)(=S)SCC(=O)NC(C)(CC)C(=O)O (stereo not drawn),inactive: 3.52%
14,CP(=O)(Nc1ccc2c(c1)OCCO2)Oc1ccccc1 (stereo not drawn),inactive: -1.23%
15,Cc1ccccc1NP(C)(=O)Nc1ccccc1C,inactive: -8.74%
16,COc1ccc(OP(C)(=O)Nc2cccc(Br)c2)cc1 (stereo not drawn),inactive: 12%
17,COc1ccc(NP(C)(=O)Oc2ccccc2OC)cc1 (stereo not drawn),inactive: 7.29%
18,CN(C)CCOC(=O)C(O)(c1ccccc1)C1CCCCC1 (stereo not drawn),inactive: 9%
19,O=[N+]([O-])c1cc([N+](=O)[O-])c(NCC2CCS(=O)(=O)C2)c([N+](=O)[O-])c1 (stereo not drawn),inactive: -3%
20,Nc1ccc2c(ccc3cccnc32)n1.O=[N+]([O-])c1cc([N+](=O)[O-])c(O)c([N+](=O)[O-])c1,inactive: -5%
21,CP(=O)(OC12CC3CC(CC(C3)C1)C2)OC12CC3CC(CC(C3)C1)C2,inactive: 7.16%
22,CCOC(=O)c1ccc(NP(C)(=O)Oc2ccc(Cl)cc2)cc1 (stereo not drawn),inactive: 7.27%

row,SMILES,inhibition
1,COc1ccc(OP(C)(=O)Nc2ccc(Br)cc2)cc1 (stereo not drawn),inactive: -3.98%
2,CCN(CC)CC(O)COC(=O)C(O)(c1ccccc1)C1CCCCC1 (stereo not drawn),inactive: 4.55%
3,CCc1ccc(OP(C)(=O)Nc2cccnc2)cc1 (stereo not drawn),inactive: -6.04%
4,CP(=O)(Oc1ccccc1)N1CCOC1=O (stereo not drawn),inactive: -3.13%
5,O=C(OCCCN1CCCC1)C(O)(c1ccccc1)C1CCCCC1 (stereo not drawn),inactive: -2.44%
6,COc1ccccc1OP(C)(=O)Nc1c(C)n(C)n(-c2ccccc2)c1=O (stereo not drawn),inactive: 4.08%
7,CP(=O)(Nc1ccc(Cl)cc1)Oc1ccc(F)cc1 (stereo not drawn),inactive: 0.31%
8,COc1ccccc1OP(C)(=O)Nc1ccccc1Br (stereo not drawn),inactive: 6.84%
9,CC(C)(C)c1ccc(OP(C)(=O)O)cc1,inactive: 4.91%
10,CN(C)C(=O)c1c([N+](=O)[O-])cc([N+](=O)[O-])cc1[N+](=O)[O-],inactive: 3.39%
11,COc1ccccc1OP(C)(=O)Nc1ccc(Br)cc1 (stereo not drawn),inactive: 0.85%
12,CN(C)CCOC(=O)C(O)(c1ccccc1)C1CCCC1 (stereo not drawn),inactive: 5.03%
13,COc1ccc(OP(C)(=O)Nc2ccccn2)cc1 (stereo not drawn),inactive: 1.2%
14,Cc1c(NP(C)(=O)Oc2ccc(C(C)C)cc2)c(=O)n(-c2ccccc2)n1C (stereo not drawn),inactive: 0.34%
15,O=[N+]([O-])c1cc([N+](=O)[O-])c(Nc2ccccn2)c([N+](=O)[O-])c1,inactive: 9.58%
16,CCc1ccc(OP(C)(=O)O)cc1,inactive: -3.35%
17,COc1ccccc1OP(C)(=O)Nc1ccc(C)cc1C (stereo not drawn),inactive: 6.98%
18,CP(=O)(Nc1ccccn1)Oc1ccccc1 (stereo not drawn),inactive: 1.37%
19,Cc1cc(C)cc(OP(C)(=O)Nc2cccc(C(F)(F)F)c2)c1 (stereo not drawn),inactive: -6.24%
20,COc1ccc(OP(C)(=O)Nc2ccccc2Br)cc1 (stereo not drawn),inactive: -3.81%
21,COc1ccccc1OP(C)(=O)Nc1ccc(C)c(C)c1 (stereo not drawn),inactive: 1.66%
22,Cc1nc2ccc3ccccc3c2o1.O=[N+]([O-])c1cc([N+](=O)[O-])c(O)c([N+](=O)[O-])c1,inactive: -0.69%

row,SMILES,inhibition
1,CP(=O)(Nc1ccc(Cl)cc1Cl)Oc1ccccc1 (stereo not drawn),inactive: -1.06%
2,CP(=O)(OCCOc1ccccc1)OCCOc1ccccc1,inactive: -4.96%
3,O=[N+]([O-])c1cc([N+](=O)[O-])c(Nc2cccnc2)c([N+](=O)[O-])c1,inactive: 5.52%
4,Cc1cccc(C)c1OP(C)(N)=O (stereo not drawn),inactive: -1.22%
5,CC(C)(C)c1ccc(OP(C)(=O)Nc2ccc(SC(F)(F)F)cc2)cc1 (stereo not drawn),inactive: -7.06%
6,O=[N+]([O-])c1ccc2c(c1)C=Nc1ccccc1O2,inactive: 11.2%
7,CCOC(=O)c1ccc(NP(C)(=O)Oc2ccccc2)cc1 (stereo not drawn),inactive: 7.5%
8,Cc1ccc(NP(C)(=O)Oc2ccccc2)c(C)c1 (stereo not drawn),inactive: -4.3%
9,COc1ccccc1OP(C)(=O)Nc1ccc(C)cc1 (stereo not drawn),inactive: 4.58%
10,COc1ccc(OP(C)(=O)Nc2cccc(F)c2)cc1 (stereo not drawn),inactive: 8.68%
11,COc1ccccc1OP(C)(=O)Nc1cc(Cl)ccc1C (stereo not drawn),inactive: -4.12%
12,Cc1cc(C)cc(OP(C)(N)=O)c1 (stereo not drawn),inactive: 0%
13,CCN(CC)CCCOC(=O)C(O)(c1ccccc1)c1ccccc1,inactive: 6.58%
14,CP(=O)(Oc1ccccc1)OC(c1ccccc1)C(F)(F)F (stereo not drawn),inactive: 6.39%
15,CP(=O)(Nc1ccc(SC(F)(F)F)cc1)Oc1ccc(Cl)cc1 (stereo not drawn),inactive: 0.29%
16,Cc1cccc(C)c1OP(C)(=O)Nc1ccc(SC(F)(F)F)cc1 (stereo not drawn),inactive: -4.87%
17,Cc1cc(C)cc(OP(C)(=O)Nc2ccc(SC(F)(F)F)cc2)c1 (stereo not drawn),inactive: -1.85%
18,CP(=O)(NC(=O)Nc1ccccc1)Oc1ccccc1 (stereo not drawn),inactive: 4.47%
19,CCc1ccc(OP(C)(=O)N2CCN(c3ccc([N+](=O)[O-])cc3)CC2)cc1 (stereo not drawn),inactive: 5.18%
20,CCOP(C)(=S)SCC(=O)NC(C)C(=O)O (stereo not drawn),inactive: -0.25%
21,O=[N+]([O-])c1cc([N+](=O)[O-])c(O)c([N+](=O)[O-])c1.c1ccc(Oc2ccncc2)cc1,inactive: 6.4%
22,CCOC(=O)c1ccc(NP(C)(=O)Oc2ccc(OC)cc2)cc1 (stereo not drawn),inactive: -2.74%

row,SMILES,inhibition
1,CP(=O)(Nc1ccccn1)Oc1ccc(Cl)cc1 (stereo not drawn),inactive: 5.36%
2,CP(=S)(Nn1cnnc1)Oc1ccccc1 (stereo not drawn),inactive: 1.27%
3,COc1ccccc1OP(C)(=O)Nc1ccccc1 (stereo not drawn),inactive: 6.07%
4,CP(=O)(Nc1ccccc1Br)Oc1ccccc1 (stereo not drawn),inactive: -5.8%
5,CCOC(=O)C(CC)C1=NC(C)(C)Cc2ccccc21.O=[N+]([O-])c1cc([N+](=O)[O-])c(O)c([N+](=O)[O-])c1 (stereo not drawn),inactive: -4.74%
6,CC1=C2N=C(C=C3N=C(C(C)=C4[N-][C@@](C)([C@@H]5N=C1[C@](C)(CCC(=O)NC[C@@H](C)OP(=O)([O-])O[C@H]1[C@@H](O)[C@@H](n6cnc7cc(C)c(C)cc76)O[C@@H]1CO)[C@H]5CC(N)=O)[C@@](C)(CC(N)=O)[C@@H]4CCC(N)=O)[C@@](C)(CC(N)=O)[C@@H]3CCC(N)=O)C(C)(C)[C@@H]2CCC(N)=O.[C-]#N.[Co+3],inactive: 1.72%
7,O=[N+]([O-])c1cc([N+](=O)[O-])c(Nc2nnnn2CCO)c([N+](=O)[O-])c1,inactive: 3.37%
8,CN1CCCCC1COC(=O)C1(O)c2ccccc2CCc2ccccc21 (stereo not drawn),inactive: -3.02%
9,COc1ccccc1OP(C)(=O)Nc1c(C)cccc1C (stereo not drawn),inactive: -7.99%
10,CCCOc1ccc(NP(C)(=O)Oc2ccc(Cl)cc2)cc1 (stereo not drawn),inactive: 0.42%
11,CP(=O)(Nc1ccc(SC(F)(F)F)cc1)Oc1ccccc1 (stereo not drawn),inactive: -3.4%
12,O=[N+]([O-])c1cc([N+](=O)[O-])c(-n2nnc3ccccc32)c([N+](=O)[O-])c1,inactive: 16.8%
13,O=[N+]([O-])c1cc([N+](=O)[O-])c(-c2cnn(-c3ccccc3)c2)c([N+](=O)[O-])c1,inactive: 12.1%
14,Cc1nc2ccc3ccccc3c2s1.O=[N+]([O-])c1cc([N+](=O)[O-])c(O)c([N+](=O)[O-])c1,inactive: -3.03%
15,COc1ccccc1OP(C)(=O)Nc1cccc(Br)c1 (stereo not drawn),inactive: 4.33%
16,Cc1cc(C)cc(OP(C)(=O)Nc2ccc(C)cc2C)c1 (stereo not drawn),inactive: 1.96%
17,CCOC(=O)c1ccc(NP(C)(=O)Oc2cc(C)cc(C)c2)cc1 (stereo not drawn),inactive: 7.77%
18,Cc1cc(C)cc(OP(C)(=O)Nc2ccccn2)c1 (stereo not drawn),inactive: -0.05%
19,CP(=O)(Nc1cccc(Br)c1)Oc1ccccc1 (stereo not drawn),inactive: 13%
20,Cc1ccc(C)c(NP(C)(=O)Oc2ccccc2)c1 (stereo not drawn),inactive: 3.95%
21,O=C(O)c1cccc(Nc2c([N+](=O)[O-])cc([N+](=O)[O-])cc2[N+](=O)[O-])c1,inactive: 3.13%
22,CC1=NCCc2c1[nH]c1ccccc21.O=[N+]([O-])c1cc([N+](=O)[O-])c(O)c([N+](=O)[O-])c1,inactive: 1.79%
